# TDP1 cell CPT: growth inhibition of DT40 Tdp1-/-;hTDP1 cells with camptothecin (screen for TDP1 inhibitors); Potency, µM (doses to about 46.2 µM), without a hit: at the highest dose activity change, negative = growth inhibition, usual class: inhibitors; 420,000 tested, 12% active; chicken DT40 Tdp1-/-;hTDP1 cells + 20 nM CPT, ATP luminescence, 48 h; note: potency is the fitted concentration of half-maximal effect; % is set by controls: 0 for no effect and ±100 for the full control effect; nearly all actives have a fitted effect of over 55% in size
#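 Chicken DT40 Tdp1-/- cells complemented with human TDP1, 400 cells/well, exposed to compounds plus 20 nM camptothecin for at least 48 h at 37 C; viability read as ATP content by CellTiter-Glo luminescence.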
# uPA surface inh: inhibitors of cell surface uPA generation; cell surface uPA generation assay, qHTS; Potency, µM (series often up to 38.3 µM), inactives show top-dose activity change, negative = inhibition, hits mostly inhibitors; 330,000 tested, 0.31% active; AID 540303; active = well fitted inhibition curve with a large enough effect; inconclusive = small, poorly fitted or top-dose-only effect; inactive = no such curve, though single readings can be large or run the other way; tested in mouse RAW 264.7 cells; note: potency is the fitted concentration of half-maximal effect; % is set by controls: 0 for no effect and ±100 for the full control effect; nearly all actives have a fitted effect of over 55% in size
# TDP1 inh: TDP1 (human) enzyme inhibition; Q9NUW8; Potency, µM (titrated, usually from 130 µM), for inactives: at the top dose activity change, negative = inhibition, usual class: inhibitors; recombinant TDP1, AlphaScreen DNA substrate cleavage; 350,000 tested, 0.28% active; note: potency is the fitted concentration of half-maximal effect; % is set by controls: 0 for no effect and ±100 for the full control effect; nearly all actives have a fitted effect of over 40% in size
#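 Signal: AlphaScreen proximity between streptavidin donor and anti-FITC acceptor beads on intact substrate. Reaction: Tdp1 1 nM, substrate 15 nM final, 5 min RT after 15 min compound preincubation.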
# miR-21 reporter: raises the signal of a miR-21 reporter | HeLa miR-21 FLuc reporter, luciferase, 48 h | Potency, µM (doses to about 38.3 µM), without a hit: at the top dose reporter change, positive = more light | 340,000 tested, under 10 active | AID 2288; active = well fitted rising curve with a large enough effect; inconclusive = small, poorly fitted or top-dose-only effect; inactive = no such curve, though single readings can be large or run the other way;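 note: % of control where 0% means no effect; miR-21 action dims this reporter so a rising signal means less miR-21 action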
#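 Compounds were titrated across several concentrations (up to approximately 40 uM) and incubated 48 hours with HeLa miR-21-FLuc reporter cells (miR-21 target sequence downstream of FLuc, endogenous miR-21). Readout was firefly luciferase luminescence after lytic detection reagent.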
# DT40 TDP1 no CPT: qHTS for Inhibitors of human tyrosyl-DNA phosphodiesterase 1 (TDP1): qHTS in cells in absence of CPT; DT40 Tdp1-/- hTDP1 cells, no CPT, ATP luminescence, 48 h; Potency, µM (doses to about 46.2 µM), for the others: top-dose activity change, negative = growth inhibition, most hits filed as inhibitors; 420,000 tested, 15% active; note: potency is the fitted concentration of half-maximal effect; % is set by controls: 0 for no effect and ±100 for the full control effect; nearly all actives have a fitted effect of over 55% in size
#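 Growth of hTDP1-complemented DT40 Tdp1-knockout cells is measured by ATP luminescence after at least 48 hr compound exposure at 37 °C, with DMSO substituting for the 20 nM CPT used in the parallel screen.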
# Starred values were filed as active, the others as inactive; ? = inconclusive; / = not tested or not shown. An excerpt weighted towards active compounds, which were near 16% of everything screened. Unless noted, calls come from the whole dose curve; as a rule, active = well fitted curve in the direction sought with a large enough effect; inconclusive = small, poorly fitted or top-dose-only effect, or another doubt; inactive = no such curve, though single readings can be large; an effect the other way counts as inactive or inconclusive.
# Screens by letter: A = TDP1 cell CPT; B = uPA surface inh; C = TDP1 inh; D = miR-21 reporter; E = DT40 TDP1 no CPT
1	N#CC1=C(N)N2C(=C(C#N)C13CCCCC3)SC1CCCCC12O (centres undefined)
  A = 10µM*; B = -6%; C = -3%; D = 15%; E = 13µM*

2	CCCS(=O)(=O)NC(=O)C1(C)CCCN(C(=O)c2ccc(C(F)(F)F)nc2C)C1 (centres undefined)
  A = ?; B = /; C = /; D = /; E = -92%

3	CCN1C(=O)[C@H]2[C@@H](c3ccc(-c4cccc(Cl)c4)cc3)N[C@@](CC(C)C)(C(=O)OC)[C@H]2C1=O
  A = 18µM*; B = 4%; C = 0%; D = /; E = 12µM*

4	CCCSc1ccc([C@H]2N[C@@](CC(C)C)(C(=O)OC)[C@H]3C(=O)N(C)C(=O)[C@@H]23)cc1
  A = ?; B = 4%; C = 0%; D = /; E = ?

5	CCN1C(=O)[C@H]2[C@@H](c3ccc(-c4ccc(Cl)c(Cl)c4)cc3)N[C@@](CC(C)C)(C(=O)OC)[C@H]2C1=O
  A = 4.1µM*; B = 5%; C = -3%; D = /; E = ?

6	COC(=O)[C@]1(CC(C)C)N[C@H](c2ccc(-c3ccc(C(C)=O)cc3)cc2)[C@@H]2C(=O)N(C)C(=O)[C@@H]21
  A = -22%; B = 6%; C = 1%; D = /; E = ?

7	CCN1C(=O)[C@H]2[C@@H](c3ccc(-c4ccc(OC)cc4)cc3)N[C@@](CC(C)C)(C(=O)OC)[C@H]2C1=O
  A = ?; B = 0%; C = -4%; D = /; E = 23µM*

8	CCN1C(=O)[C@H]2[C@@H](c3ccc(-c4cccc(Cl)c4)c(OC)c3)N[C@@](CC(C)C)(C(=O)OC)[C@H]2C1=O
  A = ?; B = -28%; C = -3%; D = /; E = ?

9	COC(=O)[C@]1(CC(C)C)N[C@H](c2ccc(-c3ccc(Cl)c(Cl)c3)cc2)[C@@H]2C(=O)N(C)C(=O)[C@@H]21
  A = ?; B = 11%; C = -1%; D = /; E = 18µM*

10	CC(C)CCN=CC1=C(O)CC(c2ccccc2)CC1=O (centres undefined)
  A = 2%; B = -2%; C = 1%; D = -2%; E = 2%

11	O=C1CCC(C(=O)N2CCN(c3cnccn3)CC2)CN1CCc1cccc(F)c1 (centres undefined)
  A = -9%; B = -4%; C = 6%; D = -1%; E = 21%

12	O=C(c1ccco1)N1CCN(Cc2cn[nH]c2-c2ccc(F)cc2F)CC1
  A = -1%; B = 4%; C = -6%; D = -1%; E = -3%

13	OC[C@@H](O)[C@@H](O)[C@H](O)[C@H](O)CO
  A = -2%; B = 27%; C = 2%; D = /; E = -1%

14	Cc1csc(SCc2nnc(-c3ccc(Cl)cc3)o2)n1
  A = -2%; B = -2%; C = 3%; D = -72%; E = -19%

15	O=C(Cn1nnc2sc(-c3ccccc3)cc2c1=O)Nc1cccc(C(F)(F)F)c1
  A = ?; B = /; C = 7%; D = -10%; E = ?

16	Cc1ccccc1NC(=O)CSCCN1C(=O)c2ccccc2C1=O
  A = 34%; B = 4%; C = -1%; D = -1%; E = 16%

17	Cc1ccccc1NC(=O)Nc1nc(C(N)C2CCCCC2)cs1 (centres undefined)
  A = 23µM*; B = /; C = /; D = /; E = ?

18	Cc1ccccc1NC(=O)Nc1nc(CN(C)C)cs1
  A = 0%; B = /; C = /; D = /; E = 3%

19	CN(C)c1ccc(NC(=O)Nc2nc(C(N)C3CCCCC3)cs2)cc1 (centres undefined)
  A = 18µM*; B = /; C = /; D = /; E = 21µM*

20	CN(C)c1ccc(NC(=O)Nc2nnc([C@H]3C[C@H](O)[C@@H](CO)O3)s2)cc1
  A = -3%; B = /; C = /; D = /; E = -3%

21	COc1ccc2c(=O)cc(CO)oc2c1
  A = ?; B = 4%; C = 0%; D = /; E = 0%

22	O=C(Cn1nnc2ccccc21)NNC(=O)c1ccccc1
  A = 3%; B = 2%; C = 4%; D = -1%; E = -15%

23	Cc1ccc(S(=O)(=O)/C(=C/Cl)NC(=O)c2ccccc2)cc1
  A = 18µM*; B = -17%; C = 6%; D = 26%; E = 15µM*

24	O=C(NN/C(=N/S(=O)(=O)c1ccc(Cl)cc1)c1ccccc1)c1ccc(O)cc1
  A = 4%; B = 2%; C = 4%; D = -57%; E = -1%

25	CC(=O)NC(=C(Cl)Cl)S(=O)(=O)c1ccccc1
  A = 12µM*; B = /; C = 6%; D = ?; E = 8.2µM*

26	Cc1ccc(C(=O)NC(=C(Cl)Cl)S(=O)(=O)c2ccc(Cl)cc2)cc1
  A = ?; B = -8%; C = 7%; D = 13%; E = 18µM*

# Copied from the list:
# DT40 TDP1 no CPT with CCN1C(=O)[C@H]2[C@@H](c3ccc(-c4ccc(OC)cc4)cc3)N[C@@](CC(C)C)(C(=O)OC)[C@H]2C1=O stands at 23µM*
# miR-21 reporter with Cc1csc(SCc2nnc(-c3ccc(Cl)cc3)o2)n1 stands at -72%
# TDP1 inh with CCCSc1ccc([C@H]2N[C@@](CC(C)C)(C(=O)OC)[C@H]3C(=O)N(C)C(=O)[C@@H]23)cc1 stands at 0%

# Screens deposited in PubChem by National Center for Advancing Translational Sciences (NCATS).
